Laboratory results: ChEMBL document CHEMBL1250451, “Mechanistic insights into a Ca2+-dependent family of alpha-mannosidases in a human gut symbiont” (Nat Chem Biol, 2010)

Legend:
Type in all cases: protein assay
[1] = biological target: T1, Alpha-1,2-mannosidase, putative (BT_3130) (Bacteroides thetaiotaomicron) (UniProt Q8A325); assay: Activity of Bacteroides thetaiotaomicron GH92 alpha-mannosidase GH92 alpha-mannosidase 3130 assessed as mannose release at 1 mM after 16 hrs by HPLC relative to untreated control after 16 hrs by HPLC
T1 sequence (whole entry): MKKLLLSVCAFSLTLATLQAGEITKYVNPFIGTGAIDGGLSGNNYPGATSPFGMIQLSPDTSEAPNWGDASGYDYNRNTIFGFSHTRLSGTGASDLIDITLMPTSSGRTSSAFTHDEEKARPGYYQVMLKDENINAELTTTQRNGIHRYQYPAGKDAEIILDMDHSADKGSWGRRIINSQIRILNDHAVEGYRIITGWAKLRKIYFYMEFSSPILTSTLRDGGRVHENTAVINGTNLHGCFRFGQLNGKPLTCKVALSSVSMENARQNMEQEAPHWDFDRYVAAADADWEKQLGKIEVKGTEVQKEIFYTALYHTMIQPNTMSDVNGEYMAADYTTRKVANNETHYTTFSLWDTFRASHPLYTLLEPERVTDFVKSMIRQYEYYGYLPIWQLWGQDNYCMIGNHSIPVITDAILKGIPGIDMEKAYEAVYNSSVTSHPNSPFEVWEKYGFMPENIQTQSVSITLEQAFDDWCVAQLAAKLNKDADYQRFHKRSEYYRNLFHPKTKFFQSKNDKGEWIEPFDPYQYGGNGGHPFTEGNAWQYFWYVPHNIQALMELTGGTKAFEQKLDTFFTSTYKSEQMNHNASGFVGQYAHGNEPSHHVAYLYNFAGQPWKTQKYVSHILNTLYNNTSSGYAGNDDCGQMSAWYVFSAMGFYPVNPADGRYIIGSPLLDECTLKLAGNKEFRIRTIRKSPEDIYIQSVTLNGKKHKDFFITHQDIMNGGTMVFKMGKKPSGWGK

[2] = biological target: T2, Alpha-1,2-mannosidase (BT_1878) (Bacteroides thetaiotaomicron) (UniProt Q8A6K3); assay: Activity of Bacteroides thetaiotaomicron GH92 alpha-mannosidase GH92 alpha-mannosidase 1878 assessed as mannose release at 1 mM after 16 hrs by HPLC relative to untreated control after 16 hrs by HPLC
T2 sequence (whole entry): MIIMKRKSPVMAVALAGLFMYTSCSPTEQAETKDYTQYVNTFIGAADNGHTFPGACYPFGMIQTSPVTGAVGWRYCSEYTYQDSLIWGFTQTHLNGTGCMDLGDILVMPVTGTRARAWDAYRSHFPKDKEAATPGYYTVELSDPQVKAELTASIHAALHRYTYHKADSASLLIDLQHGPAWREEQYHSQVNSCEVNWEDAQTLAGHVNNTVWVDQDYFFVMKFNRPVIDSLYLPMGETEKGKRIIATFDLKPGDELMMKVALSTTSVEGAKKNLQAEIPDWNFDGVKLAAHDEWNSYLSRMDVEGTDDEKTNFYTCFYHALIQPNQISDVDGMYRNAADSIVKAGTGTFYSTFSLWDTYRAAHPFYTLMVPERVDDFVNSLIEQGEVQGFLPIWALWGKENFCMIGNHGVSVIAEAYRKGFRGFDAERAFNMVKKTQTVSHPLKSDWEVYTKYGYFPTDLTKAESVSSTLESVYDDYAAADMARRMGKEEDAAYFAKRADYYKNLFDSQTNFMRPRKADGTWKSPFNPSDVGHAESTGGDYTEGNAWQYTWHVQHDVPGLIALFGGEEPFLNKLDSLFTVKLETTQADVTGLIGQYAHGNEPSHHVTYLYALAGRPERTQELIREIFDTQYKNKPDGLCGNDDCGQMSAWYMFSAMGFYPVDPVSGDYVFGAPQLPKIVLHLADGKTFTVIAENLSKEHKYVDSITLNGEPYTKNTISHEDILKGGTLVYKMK

[3] = biological target: T3, Alpha-1,2-mannosidase (BT_3991) (Bacteroides thetaiotaomicron) (UniProt Q8A0N0); assay: Activity of Bacteroides thetaiotaomicron GH92 alpha-mannosidase GH92 alpha-mannosidase 3991 assessed as mannose release at 1 mM after 16 hrs by HPLC relative to untreated control after 16 hrs by HPLC
T3 sequence (whole entry): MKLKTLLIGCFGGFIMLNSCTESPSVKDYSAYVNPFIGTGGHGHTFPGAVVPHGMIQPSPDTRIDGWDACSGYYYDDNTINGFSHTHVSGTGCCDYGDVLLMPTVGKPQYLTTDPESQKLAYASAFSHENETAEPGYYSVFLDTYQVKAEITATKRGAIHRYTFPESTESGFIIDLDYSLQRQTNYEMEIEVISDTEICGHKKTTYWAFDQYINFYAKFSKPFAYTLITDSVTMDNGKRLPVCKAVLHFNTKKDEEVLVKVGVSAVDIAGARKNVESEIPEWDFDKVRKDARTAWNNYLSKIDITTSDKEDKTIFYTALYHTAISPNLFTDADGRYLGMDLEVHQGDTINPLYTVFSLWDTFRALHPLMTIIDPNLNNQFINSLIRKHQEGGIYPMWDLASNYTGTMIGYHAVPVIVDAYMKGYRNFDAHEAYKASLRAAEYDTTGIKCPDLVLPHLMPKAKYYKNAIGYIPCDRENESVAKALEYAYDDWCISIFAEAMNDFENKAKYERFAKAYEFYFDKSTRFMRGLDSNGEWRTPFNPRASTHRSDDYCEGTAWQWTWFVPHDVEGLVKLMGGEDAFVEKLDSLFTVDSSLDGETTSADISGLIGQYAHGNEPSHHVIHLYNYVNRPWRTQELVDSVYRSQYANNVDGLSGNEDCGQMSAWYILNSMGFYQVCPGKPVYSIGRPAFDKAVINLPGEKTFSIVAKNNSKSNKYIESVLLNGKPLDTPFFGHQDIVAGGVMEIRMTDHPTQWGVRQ

Activity [1]: 100% | Activity [2]: 100% | Activity [3]: 100%
Structure (SMILES): OC[C@H]1O[C@H](O[C@@H]2[C@H](O)[C@@H](O)O[C@H](CO)[C@H]2O)[C@@H](O)[C@@H](O)[C@@H]1O
